Earlier results as cited in patent US10711261B2 (priority 2015, dated 2020).

Test system: ALS
Details: in vivo; cited from earlier work

Nc1nc2ccc(OC(F)(F)F)cc2s1 [riluzole]
prolongation of median survival: 2-3 months
